Rows were chosen to be rich in hits. Some 3.7% of all compounds tested hit in one or more screens of this group.
Nrf2 ARE act: activates Nrf2 signaling. Potency, µM (highest dose often 46.1 µM), inactives show at the top dose activation, most hits filed as activators. hit rate 0.31% among 410,000. AREc32 ARE-luciferase reporter (MCF7-derived line), luminescence, 24 h. AID 624171; also: potency is read from the fitted curve at half-maximal effect; % of control where 0% means no effect; nearly all actives have a fitted effect of over 65% in size
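Luminescent ARE reporter assay in AREc32_Fluc cells: overnight plating at 37 deg C, 24 hr compound incubation, Steady-Glo added, 30 min RT before reading.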
ClpP mod: qHTS Assay for Activators of ClpP. ATP-dependent Clp protease proteolytic subunit (Bacillus subtilis (strain 168)), P80244. purified B. subtilis ClpP, FRET peptide cleavage, 20 min. Potency, µM (series often up to 57.5 µM), for inactives: at the highest dose activity change, negative = active. hit rate 1.9% among 340,000; active = well fitted falling curve with a large enough effect; inconclusive = small, poorly fitted or top-dose-only effect; inactive = no such curve, though single readings can be large or run the other way; also: potency is read from the fitted curve at half-maximal effect; the source files actives as falling curves though it sought activators and does not explain the sign; nearly all actives have a fitted effect of over 65% in size
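ClpP 10 microg/mL final, pH 8 Tris/KCl buffer with BSA, glycerol, Tween-20; compound pinned in; FRET-FV substrate; RT 20 min; Ex320/Em430; ΔFRET vs ADEP 5.8 microM, DMSO, no enzyme.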
TCR activator: T cell receptor activation. primary human leukocytes, anti-CD3, IL-2 HTRF, 48 h. 330,000 tested, under 10 active. Potency, µM (series often up to 9.22 µM), inactives show at the highest dose activation of IL-2 secretion, actives largely listed as activators; also: % of control where 0% means no effect
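HTRF read-out of IL-2 secretion: europium cryptate donor excited at 320nm, d2 acceptor emission at 665nm. Cells were primary human leukocytes incubated 48 hr with compounds and a-CD3 beads, supplying TCR signal only.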
Nrf2 inh: blocks Nrf2 signaling. A549 ARE-Fluc reporter, luciferase luminescence, 18-24 h. Potency, µM (titrated, usually from 46 µM), without a hit: at the highest dose activity change, negative = inhibition, usual class: inhibitors. hit rate 2.1% among 360,000. AID 504444; also: potency is read from the fitted curve at half-maximal effect; % is scaled to controls: 0 for no effect and ±100 for the full control effect; nearly all actives have a fitted effect of over 60% in size
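A549 ARE_Fluc cells, 5000/well, 5% FBS OPTI-MEM; compounds in dose-response, 18-24 h at 37 °C/5% CO2; CellTiter-Fluor viability read (Ex 405/Em 525), then BugLite luciferase luminescence = Nrf2 activity.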
miR-21 FLuc: raises the signal of a miR-21 reporter; HeLa miR-21 FLuc reporter, luciferase, 48 h; Potency, µM (top dose mostly 38.3 µM), for inactives: at the highest dose reporter change, positive = more light; AID 2288; 340,000 tested, under 10 active; active = well fitted rising curve with a large enough effect; inconclusive = small, poorly fitted or top-dose-only effect; inactive = no such curve, though single readings can be large or run the other way;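 note: % of control where 0% means no effect; miR-21 action dims this reporter so a rising signal means less miR-21 action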
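HeLa miR-21-FLuc reporter line, endogenous miR-21; 2000 cells/well in DMEM/10% FBS; compound titration up to ~40uM final, 48 h, 37 degree Celsius; luciferase detection reagent, 15 min lysis, CCD luminescence.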
A549 tox: A549 cytotoxicity, counter-screen for Nrf2 inhibitors | AID 504648 | A549 ARE-Fluc cells, CellTiter-Fluor viability, 18-24 h | Potency, µM (top dose mostly 46 µM), for the others: at the highest dose activity change, negative = cytotoxicity, usual class: inhibitors | hit rate 0.16% among 390,000; also: potency is read from the fitted curve at half-maximal effect; % is scaled to controls: 0 for no effect and ±100 for the full control effect
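Cytotoxicity counterscreen: CellTiter-Fluor fluorescence was measured in A549 ARE_Fluc cells after 18-24 h of compound exposure in a concentration series. The subsequent BugLite luminescent read reports ARE-luciferase activity.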
Active calls of the source: *; ? = inconclusive; . = no result given; [ ] = dose if it differs, or a comment. Unless noted, calls follow the shape of the dose curve; as a rule, active = well fitted curve in the direction sought with a large enough effect; inconclusive = small, poorly fitted or top-dose-only effect, or another doubt; inactive = no such curve, though single readings can be large; an effect the other way counts as inactive or inconclusive.

Abbreviations: A = Nrf2 ARE act; B = ClpP mod; C = TCR activator; D = Nrf2 inh; E = miR-21 FLuc; F = A549 tox
COc1ccc(C/C(N)=N/OC(C)=O)cc1OC
  A: -1%; B: 1%; C: 1%[46.1 µM]; D: 14%; E: -7%; F: 1%

COc1ccccc1Nc1nn2c(=O)c3ccc(C(=O)NCCc4ccccc4)cc3nc2s1
  A: 3%; B: -26%; C: .; D: 18µM*; E: ?; F: 8.2µM*

CCn1c(CNc2ccc(Cl)cc2)nnc1SCc1ccc(C)cc1
  A: 0%; B: 2%; C: -7%[46.1 µM]; D: -11%; E: -2%; F: 0%

CCn1c(CNc2ccc(Cl)cc2)nnc1SCc1ccc(Cl)cc1
  A: 0%; B: -2%; C: 4%[46.1 µM]; D: 23µM*; E: 2%; F: ?

Cc1ccc(CN2[C@H](C)[C@H](c3ccccc3)OCCS2(=O)=O)cc1
  A: .; B: -2%; C: .; D: .; E: .; F: .

c1cc(CNc2ccc(N3CCOCC3)cc2)ccn1
  A: -1%; B: 32µM*; C: 10%; D: .; E: -18%; F: -3%

O=S(=O)(c1ccc(Cl)cc1)N1CCN(S(=O)(=O)c2ccc3c(c2)OCCO3)CC1
  A: .; B: .; C: .; D: -3%; E: .; F: -1%

CN(C(=O)c1cccc(NC(=O)Cc2ccc(NC(=O)C3CCCN(C(=O)CCc4ccccc4)C3)cc2)c1)C1CCCCC1 (configuration not stated)
  A: 5%; B: -1%; C: -4%; D: 10µM*; E: .; F: -12%

CN(C(=O)c1ccc(NC(=O)Cc2ccc(NC(=O)C3CCCN(C(=O)CCc4ccccc4)C3)cc2)cc1)C1CCCC1 (configuration not stated)
  A: 4%; B: 0%; C: -3%; D: 23µM*; E: .; F: -6%

CN(C(=O)c1ccc(NC(=O)Cc2ccc(NC(=O)C3CCN(C(=O)CCc4ccccc4)CC3)cc2)cc1)C1CCCC1
  A: 0%; B: 1%; C: -1%; D: ?; E: .; F: -10%

CN(Cc1ccccc1)C(=O)c1cccc(NC(=O)Cc2ccc(NC(=O)C3CCN(C(=O)CCc4ccccc4)CC3)cc2)c1
  A: 4%; B: 0%; C: 4%; D: 16µM*; E: .; F: -17%

CN(C(=O)c1cccc(NC(=O)Cc2ccc(NC(=O)C3CCCN(C(=O)CCc4ccccc4)C3)cc2)c1)C1CC1 (configuration not stated)
  A: 6%; B: -2%; C: -1%; D: ?; E: .; F: -3%

C[C@@H]1CN([C@@H](C)CO)C(=O)CCCn2cc(nn2)CO[C@H]1CN(C)S(=O)(=O)c1ccc(C#N)cc1
  A: 4%; B: -3%; C: .; D: .; E: .; F: .

CN(C(=O)c1ccc2c(Cl)c3c(nc2c1)CCC3)c1ccccc1F
  A: 7%; B: -1%; C: .; D: 23%; E: -41%; F: 1%

Cc1cccc(-n2c(N)cc(=O)nc2SCC(=O)Nc2ccc(F)cc2)c1C
  A: -1%; B: 0%; C: .; D: 0%; E: 1%; F: 0%

Cc1ccc(C)c(N2CCN(C(=O)c3ccc(-c4nc(COc5ccccc5)c(C)o4)cc3)CC2)c1
  A: 0%; B: -5%; C: .; D: ?; E: -1%; F: 12%

CSc1nc2nc(C)cc(-c3ccccc3)n2n1
  A: 1%; B: ?; C: 1%; D: -3%; E: -11%; F: 6%

CSc1nc2nc(C(F)(F)F)cc(-c3ccccc3)n2n1
  A: 14µM*; B: 32µM*; C: -1%; D: 1%; E: -7%; F: -4%

COc1ccc(S(=O)(=O)N(Cc2nc(-c3ccccc3)no2)C2CCCCC2)cc1
  A: 0%; B: 1%; C: .; D: -10%; E: 3%; F: 7%

COc1ccc(OC)c(C(C)NC(=S)NC2CCCCC2)c1 (configuration not stated)
  A: 0%; B: -1%; C: -2%; D: 18µM*; E: 9%; F: 0%

COC(=O)C(C)Sc1ncnc2c1c(-c1ccccc1)cn2-c1ccc(F)cc1 (configuration not stated)
  A: 1%; B: 1%; C: .; D: -18%[9.27 µM]; E: -29%; F: 1%

COc1cc2oc3cc(C#Cc4ccc(N)cc4)ccc3c(=O)c2cc1OC
  A: 0%; B: -16%; C: -5%; D: 16µM*; E: .; F: ?

COc1cc2oc3ccc(C#Cc4ccccn4)cc3c(=O)c2cc1OC
  A: 4%; B: 3%; C: -2%; D: -9%; E: .; F: 4%

N#Cc1ccc(C#Cc2ccc3oc4ccccc4c(=O)c3c2)cc1
  A: -1%; B: -15%; C: -4%; D: -11%; E: .; F: 10%

Single records, as listed above. Order of values: Nrf2 ARE act, ClpP mod, TCR activator, Nrf2 inh, miR-21 FLuc, A549 tox
C[C@@H]1CN([C@@H](C)CO)C(=O)CCCn2cc(nn2)CO[C@H]1CN(C)S(=O)(=O)c1ccc(C#N)cc1 as listed: 4%, -3%, ., ., ., .
O=S(=O)(c1ccc(Cl)cc1)N1CCN(S(=O)(=O)c2ccc3c(c2)OCCO3)CC1 as listed: ., ., ., -3%, ., -1%
CN(C(=O)c1cccc(NC(=O)Cc2ccc(NC(=O)C3CCCN(C(=O)CCc4ccccc4)C3)cc2)c1)C1CCCCC1 (configuration not stated) as listed: 5%, -1%, -4%, 10µM*, ., -12%

Source: PubChem BioAssay
